Results as given in PubChem BioAssay AID1117279 (The Scripps Research Institute Molecular Screening Center, 2014).
Only a part is listed here, and it is no random draw. Calls of active or inactive are those of the source.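 How the source made its calls: active means average inhibition above the solvent-only control wells' mean plus 3 SD (cut at about 15% in these data); inactive means the rest.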

Experiment: TTR promoter reporter inhibitors in hepatoma cells, counter-screen for TTR transcription activator project, cell-based, luminescence, HuH7 hepatoma (AID 1117279);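 further: 0% = cells with DMSO only and 100% = cells with inhibitor control FD; inhibitors lower well luminescence so higher value means more inhibition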
Settings: HuH7 TTR promoter-Gaussia luciferase reporter, at 16.7 µM, hits give high values

SMILES	inhibition
Cc1ccc(OP(=O)(Nc2nccs2)Oc2ccc(C)cc2)cc1	inactive: -8.02%
CCOP(=O)(Nc1ccccc1)OCC	inactive: -3.91%
